Data on one molecule can be found in patent US20040132715A1, “Method to treat allergic rhinitis” (priority 2002, published 2004).

This experiment concerns Zymosan Induced Peritonitis in Mice. The experiment in a line: Zymosan induced peritonitis in mice (PMN influx into peritoneal cavity). Format: in vivo. Conditions: s.c. at -15 min and +2 h (Compound 1 10 mg/kg; Imetit, Thioperamide 5 mg/kg), 1 mg zymosan A i.p., lavage at 4 h. On the procedure: This is commonly used to induce peritonitis in mice and appears to act in a mast cell dependent manner. Male out-bred Swiss albino mice were purchased from Bantin and Kingman (T.O. strain; Hull, Humberside) and maintained on a standard chow pellet diet with tap water ad libitum and a 12:00 h light /dark cycle. All animals were housed for at least 3 days prior to experimentation to allow body weight to reach ˜30 g on the day of the experiment. […] Animals were briefly (30-60 s) anesthetized with halothane for all s.c. and i.p. treatments described below. Drugs were stored at room temperature, in the dark. On the day of the experiment, drugs were dissolved in sterile PBS as depicted below, and generously vortexed. The compound from Chemical Example 1 was prepared at 10 mg/5 mL, and injected at 5 mL/kg. […] Time −15 min: Compounds or PBS administered s.c. at the reported doses. Time 0: At time 0, mice received 1 mg zymosan A (Sigma) i.p. Time +2 h: Compounds or PBS administered s.c. at the reported doses. […] Peritoneal cavities were washed 4 h later with 3 mL of PBS containing 3 mM EDTA, and the number of migrated leukocytes determined, by taking an aliquot (100 μL) of the lavage fluid and diluting 1:10 in Turk's solution (0.01% crystal violet in 3% acetic acid). […] Statistical differences were determined by Anova followed by Bonferroni's post-hoc test.

Molecules are shown by their SMILES. Several values for one entry are separate records, joined by “and”; a condition that tells them apart may be missing. Identical values can stand only once.

`N=C(N)SCCc1cnc[nH]1` [Imetit]: the “PMN (10^6 per mouse), single mice” value was 19.8 10^6 per mouse and 17.1 10^6 per mouse and 14.1 10^6 per mouse (2×) and 15.3 10^6 per mouse and 21.3 10^6 per mouse and 17.7 10^6 per mouse and 18.6 10^6 per mouse.
